Chains of the proteins cited; added tags and fusions are not shown. Lines headed by an entry give the natural chain unless they say otherwise; changes in a name come on top.
UniProt P64604: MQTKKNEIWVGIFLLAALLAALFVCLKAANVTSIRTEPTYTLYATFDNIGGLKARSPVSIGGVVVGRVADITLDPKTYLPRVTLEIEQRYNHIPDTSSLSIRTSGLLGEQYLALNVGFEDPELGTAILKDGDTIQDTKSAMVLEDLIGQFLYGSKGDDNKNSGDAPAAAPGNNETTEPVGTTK

In doi:10.1101/388546:

Target: MlaD periplasmic domain lacking its N-terminal membrane anchor (UniProt P64604)
Assay: SEC

stoichiometry N: 6
Substance: MlaD periplasmic domain lacking its N-terminal membrane anchor (from UniProt P64604 23-183) (domain or fragment)
